## Binding of CDR-mutated scFvs to a peptide of the spike HR2 region

Reference: Engelhart et al. 2022, doi:10.1038/s41597-022-01779-4. File: FLAb, binding data.

Target: peptide PDVDLGDISGINAS, taken from heptad repeat 2 (HR2) of SARS-CoV-2 spike.

The variants keep the heavy chain, the linker and the frameworks of Ab-95 (scFv order VH, a 15-residue (Gly4Ser)3 linker, VL).
VH: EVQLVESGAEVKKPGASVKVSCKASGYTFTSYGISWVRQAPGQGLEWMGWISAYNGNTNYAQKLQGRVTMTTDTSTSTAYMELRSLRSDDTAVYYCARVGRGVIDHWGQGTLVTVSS
VL: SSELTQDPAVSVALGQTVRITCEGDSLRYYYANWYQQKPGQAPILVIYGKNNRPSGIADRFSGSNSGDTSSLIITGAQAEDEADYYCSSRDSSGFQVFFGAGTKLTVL

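The parent was found by panning a naive human phage display library on the peptide. The library (AAYL52) carries one to three amino acid substitutions per variant, with no insertions or deletions. AlphaSeq pools MATa yeast showing the antibodies with MATalpha yeast showing the peptide. Mating (16 h, 30 °C) was followed by selection of diploids and sequencing of their barcodes. Read counts were normalised to the haploid input and turned into Kd by a linear fit to BCL2-family pairs of known affinity, for each replicate. There are three technical replicates.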

Variants are written as CDR1, CDR2 and CDR3 of the light chain (limits as in the source). Parent: EGDSLRYYYAN, GKNNRPS, SSRDSSGFQVF.
Scale: log10 of Kd in nM, estimated from mating counts; low values are strong binders.
Averages over replicates are reported, and they cover detected replicates only.
Where no diploid with the target was found in any replicate, the entry reads "nd": below detection, most likely a poor binder, though not proof of it.
Background: pairings of library AAYL52 with three empty control strains gave a value in 28% of cases (median 3.91, 5th percentile 2.90). Values in that range, when seen in few replicates, are hard to tell from nonspecific mating.

CDR-L1 | CDR-L2 | CDR-L3 | mean log10 Kd (nM) | replicates with signal
EGDSLFHYYAN | GKNNRPS | SSRDSSGFEVF | 3.74 | 2/3
EGDSLRYYWAN | GKNNRPS | QSRDSSGFYVF | 3.08 | 1/3
EGDSLRYYYAN | GKRNRPS | SHRDSSGFGVF | nd | 0/3
EGDSLRYYYAN | NKNNRPS | FSRDSSGQQVF | 4.66 | 1/3
EGDSLRYYYAN | GKKHRPS | SSRDSPGFQVF | 3.83 | 1/3
EGDSLRMYYAY | GKNNRPS | SSRHSSGFQVF | 5.07 | 1/3
EGDSLQYYYAN | GSNNRPS | SSRDSSGFQVG | 3.84 | 3/3
EGDSLRYYYAD | GKNNRPS | SSRDSSGFVVV | 4.66 | 1/3
EGDSWRQYYQN | GKNNRPS | SSRDSSGFQVF | 4.07 | 1/3
EGDSERYYYDN | TKNNRPS | SSRDSSGFQVF | nd | 0/3
EGDSLRYYYAL | GKNNRPS | SMRDSSGFQVQ | 3.58 | 2/3
EGDSLYYYYAN | GKNNRPS | SSRQSSGFQVT | 3.89 | 1/3
EGDSLRYYYAN | GKNNRPS | SSRKSMGFQVH | nd | 0/3
LGDSLRYYYAN | GKNERPS | SSRMSSGFQVF | nd | 0/3
EGDSLRYYYFN | GKNNRVS | SSRDSIGFQVF | 3.93 | 3/3
EGDSLRYYYTA | GNNNRPS | SSRDSSGFQVF | 3.75 | 2/3
EGDSLRYYYAN | GKNNRPT | CSRDSSGFTVF | 3.64 | 3/3
EGDSLRCYYTN | GKNNRPS | SSRDSSGFQCF | 3.31 | 2/3
EGDSLRYYYAN | GKNNRPS | SSRNSSGFLVF | 3.28 | 3/3
GGDSLRYYYAN | RKNNAPS | SSRDSSGFQVF | 3.55 | 1/3
EGDSLRYYYAN | GKNNRCS | SSRDSSGFYVF | 2.98 | 3/3
EGDSPRYYYAN | DKNNRPS | STRDSSGFQVF | 2.87 | 2/3
EGDSLRYYYAN | GTNNRPS | SSIDSSGPQVF | 5.00 | 1/3
LGDSLRPYYAN | GKNNRPS | SSRDSSGFQMF | 2.69 | 3/3
EGDSLRYYSAN | GKNNRPS | SSRFSSGFQAF | 1.56 | 3/3
EGDSLRYYYAN | GKNNRPS | SSRDSYGFQVT | 4.04 | 2/3
EGDSLRYYYAN | GWNNRSM | SSRDSSGFQVF | 4.00 | 2/3
EGDSLRYYYAN | IKNNRPS | SSRRSYGFQVF | 3.55 | 1/3
EGDSLRYYYAN | GKNNRKS | SSRDSWGFQYF | 3.50 | 1/3
EGDSLRYYYAN | GKNPRPI | SSRDSTGFQVF | 3.88 | 1/3
FGDSLRYYYAN | GKNNRPI | SSRDSSVFQVF | 4.07 | 3/3
QGDSLRYYQAN | GKNNRPS | SPRDSSGFQVF | 2.18 | 3/3

Further variants, results first:

mean log10 Kd (nM) | replicates with signal | CDR-L1 | CDR-L2 | CDR-L3
2.51 | 3/3 | EGDSLRYYYAN | GKNLRSS | SSRSSSGFQVF
1.13 | 3/3 | EGDSLRYYEAN | GKNNRPS | SSVDSSGFWVF
4.77 | 3/3 | EGDSLLYYYAN | GKNNRPS | SSMDSSAFQVF
2.33 | 3/3 | EGDGLRYYYAN | GKNVRPS | SSRDSSGFRVF
4.74 | 3/3 | EYDSLRYYYAM | GKNNRNS | SSRDSSGFQVF
nd | 0/3 | EGDSLSYYYAN | GKNNRPS | SSQDYSGFQVF
3.67 | 1/3 | EGDSLRYYYLG | GKNNRPS | SSCDSSGFQVF
2.72 | 3/3 | EGDSLRYVYAN | GKNNRPE | SSRPSSGFQVF
4.10 | 2/3 | EGDSLRYYYHN | GKNARPS | CSRDSSGFQVF
3.82 | 3/3 | ELDSQRYYYAN | GMNNRPS | SSRDSSGFQVF
5.02 | 2/3 | EGDSLRYYYAE | GKNNLPS | PSRDSSGFQVF
nd | 0/3 | EGDSLVYYYAN | GGNNRPS | SSRDSSGFCVF
4.29 | 3/3 | VGMSYRYYYAN | GKNNRPS | SSRDSSGFQVF
3.55 | 1/3 | EGDSLRYYYAN | GKNYRPS | SSRDSSGFQTF
1.68 | 3/3 | ECDSLRYYYAN | GKNNRPS | SSRDSSGFHSF
3.04 | 2/3 | EGDSLRYIYAN | GKNLRNS | SSRDSSGFQVF
2.53 | 3/3 | EGDSLRYYFAN | GKNNRPK | SGRDSSGFQVF
2.17 | 3/3 | EGDSLRYYMAN | GQNNRWS | SSRDSSGFQVF
3.38 | 3/3 | ENDSLRYQYAN | GKNNRPS | ESRDSSGFQVF
1.92 | 3/3 | EGDSLRYYGAN | GKNNRPH | SSRDSGGFQVF
2.63 | 3/3 | EGDSLRYYYAN | GKSNRPS | SSRDSSGTQVF
3.66 | 3/3 | ETDSLRYYYAN | GKNNRPY | SSRDVSGFQVF
2.49 | 3/3 | EGDSLRYYYAN | GKNNRPS | LSRDSSGFRVF
3.54 | 3/3 | EGDSLLYYYAN | GKNNRPS | SSRDSSGFQSG
3.67 | 2/3 | EGDSLRYYYAN | QWNNRPS | SSADSSGFQVF
1.54 | 3/3 | EGDSLRYYYAN | GKNNRPS | CSAQSSGFQVF
3.31 | 1/3 | EGDSLRYYYFS | GKNNRPS | YSRDSSGFQVF
4.05 | 2/3 | EGDSLRYYCAN | GKLNRPT | SSRDSSGFQVF
2.54 | 3/3 | EGESLRYYYAN | GKNSRPS | SSRDSSGFQVF
3.74 | 1/3 | EGDSSRYYYAN | GKENRPS | SSRDSSGFQHF
5.31 | 1/3 | EGDSLRYYYAN | GKNNRPT | SSRDSSKGQVF
3.55 | 3/3 | EHDSLRYYYAN | SKNNRPS | SSRDSSGAQVF